Measured values from PubChem BioAssay AID678 (Vanderbilt High Throughput Screening Facility, 2007).
This is a selection; strong and weak results do not stand in their true shares. Activity calls are given as the source filed them.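 How the source made its calls: active means fluorescence response below the plate's average for near-maximal glutamate wells, less 3 SD of those wells; inactive means the rest.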

target: Metabotropic glutamate receptor 4 (Homo sapiens) (UniProt Q14833); test: mGluR4 calcium signal in M1 antagonist follow-up – cell-based, antagonist mode, secondary assay 1, M1 allosteric modulator project (AID 678); conditions: CHO-mGluR4 calcium flux, Fluo-4 fluorescence, glutamate EC80; at 10 µM; active compounds read low;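 further: raw unnormalized fluorescence span taken in the window right after glutamate addition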

Row | Compound | fluorescence response (max-min)
1 | CN(C)CCOC(=O)C(O)(c1ccccc1)C1CCCCC1 (configuration not stated) | inactive: 240
2 | CCN(CC)CC(O)COC(=O)C(O)(c1ccccc1)C1CCCCC1 (configuration not stated) | inactive: 258
